Assay results reported in US20250011774A1 (priority 2021, published 2025).

Tested on: HSA-LR DM1-mouse model
Conditions: HSA-LR mice, single injection

| Substance | recovery from disorientation after injection (C = 20 mpk, D = 40 mpk) | time to recover from disorientation after injection |
| --- | --- | --- |
| 5′-CAGCAGCAGCAGCAGCAGCAG-3′-PEG4COT-click-K-miniPEG2-Lys(FfFGRGRE)-miniPEG2-VKRKKKP-Ac [221-1106] | took several hours to recover | – |
| 5′-CAGCAGCAGCAGCAGCAGCAG-3′ [compound 221] | – | ≤ 15 min |
